# Earlier results in US20220273590A1, “COMPOUNDS FOR PREVENTION AND TREATMENT OF POST-OPERATIVE COGNITIVE DYSFUNCTION” (ABREXA PHARMACEUTICALS, INC., priority 2019, published 2022).
# Details: after coronary artery bypass graft surgery (Mathew et al. 2004); cited from earlier work
substance,measurement,value
Pexelizumab: a humanized monoclonal antibody used as an immunosuppressive drug,effect on POCD,no effect
